AlphaSeq binding of Ab-14 heavy chain variants to a spike HR2 peptide

From the AlphaSeq antibody data of Li et al. 2023 (doi:10.1038/s41467-023-39022-2), copy in the FLAb collection.

Antigen: PDVDLGDISGINAS, a 14-residue peptide of the SARS-CoV-2 spike HR2 region.

Ab-14 is the parent antibody, in scFv form: VH, then a (GGGGS)3 linker, then VL. The light chain is unchanged in all variants.
VH: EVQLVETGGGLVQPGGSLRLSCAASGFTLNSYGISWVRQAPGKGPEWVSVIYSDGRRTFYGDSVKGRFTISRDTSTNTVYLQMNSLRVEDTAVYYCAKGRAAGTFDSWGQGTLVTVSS
VL: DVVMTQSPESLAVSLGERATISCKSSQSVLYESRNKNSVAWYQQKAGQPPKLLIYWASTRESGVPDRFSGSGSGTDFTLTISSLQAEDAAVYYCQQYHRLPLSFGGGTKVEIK

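The parent was found by panning a naive human phage display library on the peptide. The variants were designed computationally from a first round of random CDR variants and then made and measured. Group labels follow the data file (Ctrl: baseline library sampled from a position-specific scoring matrix, with some repeated check sequences; En: ensemble of fine-tuned language models; GP: Gaussian process model; GPLM: also part of the Gaussian process libraries; HC: hill climbing; Gen: genetic algorithm; Gibbs: Gibbs sampling; a sequence that several methods proposed may carry one label only). AlphaSeq pools MATa yeast showing the antibodies with MATalpha yeast showing the peptide. After mating in shaken culture at 30 °C for 16 h, diploids were selected and their barcode pairs sequenced. A regression on co-assayed BCL2-family reference pairs converts the normalised counts of each replicate to an apparent Kd. There are six technical replicates.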

The parent's heavy chain CDRs are GFTLNSYGIS, VIYSDGRRTFYGDSVK, GRAAGTFDS; each variant's own CDRs replace them letter for letter.
Affinities are written as log10 Kd with Kd in nM; a lower number is a better binder.
Replicates are averaged; those with no signal do not enter the mean.
An entry "no signal" has no value in the source: the pair was not observed among the diploids in any replicate. This suggests poor binding but is not conclusive.
Three control strains display no target. For all heavy chain designs, 1% of the pairings with them gave a signal, with a median of 2.08 and one signal in twenty below 0.84, so weak values seen in few replicates may be background.
The range of this assay differs from that of the first round, and the authors advise against merging the two.
In the paper, a design with two or fewer of six values counts as a poor binder.

{"CDR-H1": "GADINEYGIS", "CDR-H2": "VIYADGSRTVYADTVK", "CDR-H3": "GHHGGIFDS", "group": "En_Gibbs", "log10 Kd (nM), mean": "no signal", "seen in": "0 of 6"}
{"CDR-H1": "GFDLNEYGIS", "CDR-H2": "VIYADGMRTAYADDVK", "CDR-H3": "GNQAGTFDQ", "group": "En_Gen", "log10 Kd (nM), mean": "-0.06", "seen in": "6 of 6"}
{"CDR-H1": "GFDLNSYGIS", "CDR-H2": "VIYSDGRRTFYADMVK", "CDR-H3": "GEAAGTFDS", "group": "GP_Gen", "log10 Kd (nM), mean": "0.91", "seen in": "6 of 6"}
{"CDR-H1": "GFDLNEYGIS", "CDR-H2": "VIYADGQRTAYTDSVK", "CDR-H3": "GNVAGTFDM", "group": "En_Gen", "log10 Kd (nM), mean": "-0.19", "seen in": "6 of 6"}
{"CDR-H1": "GFSLNSYGIS", "CDR-H2": "VIYSDGRRTFYDDSVK", "CDR-H3": "GKTAGTFDS", "group": "GPLM_Gibbs", "log10 Kd (nM), mean": "0.73", "seen in": "2 of 6"}
{"CDR-H1": "GFELNSYGIS", "CDR-H2": "VIYSDGKRTFYGDQVK", "CDR-H3": "GRTAGTFDS", "group": "GP_Gen", "log10 Kd (nM), mean": "0.22", "seen in": "1 of 6"}
{"CDR-H1": "GFTLNSYGIS", "CDR-H2": "VIYSDGRRTFYADDVK", "CDR-H3": "GRAAGTFDS", "group": "GP_Gibbs", "log10 Kd (nM), mean": "1.05", "seen in": "3 of 6"}
{"CDR-H1": "GFTLNQYGIS", "CDR-H2": "VIYSDGRRTFYGDSVK", "CDR-H3": "GRIAGTFDS", "group": "Ctrl", "log10 Kd (nM), mean": "0.64", "seen in": "6 of 6"}
{"CDR-H1": "GFDLEDYGIS", "CDR-H2": "VIYADGQRTFYSDSVK", "CDR-H3": "GEIAGTFDS", "group": "En_HC", "log10 Kd (nM), mean": "-0.19", "seen in": "6 of 6"}
{"CDR-H1": "GFTLNEYGIS", "CDR-H2": "VIYSDGMRTFYGDSVK", "CDR-H3": "GRHAGTFDS", "group": "GP_Gen", "log10 Kd (nM), mean": "0.63", "seen in": "6 of 6"}
{"CDR-H1": "GFDLNEYGIS", "CDR-H2": "VIYADGVRTAYADDVK", "CDR-H3": "GQVAGTFDV", "group": "En_Gen", "log10 Kd (nM), mean": "-0.58", "seen in": "6 of 6"}
{"CDR-H1": "GFDLNEYGIS", "CDR-H2": "VIYADGKRAAYADSVK", "CDR-H3": "GNVAGTFDV", "group": "En_Gen", "log10 Kd (nM), mean": "-0.19", "seen in": "6 of 6"}
{"CDR-H1": "GFTNNSYGIS", "CDR-H2": "VIYSDGSRTFYMDSVK", "CDR-H3": "GRAAGTFDS", "group": "Ctrl", "log10 Kd (nM), mean": "no signal", "seen in": "0 of 6"}
{"CDR-H1": "GFDLDEYGIS", "CDR-H2": "VIYADGQRTAYADSVK", "CDR-H3": "GETAGTFDQ", "group": "En_Gen", "log10 Kd (nM), mean": "-0.28", "seen in": "6 of 6"}
{"CDR-H1": "GFTLNEYGIS", "CDR-H2": "VIYSDGQRTFYGDDVK", "CDR-H3": "GRTAGTFDT", "group": "GP_Gibbs", "log10 Kd (nM), mean": "no signal", "seen in": "0 of 6"}
{"CDR-H1": "GFDLNEYGIS", "CDR-H2": "VIYADGVRSFYADSVK", "CDR-H3": "GQLAGTFDV", "group": "En_HC", "log10 Kd (nM), mean": "-0.17", "seen in": "6 of 6"}
{"CDR-H1": "GFSLNSYGIS", "CDR-H2": "VIYSDGRRTFYGDSVK", "CDR-H3": "GQTAGTFDN", "group": "GPLM_Gen", "log10 Kd (nM), mean": "-0.05", "seen in": "6 of 6"}
{"CDR-H1": "PFDLNSYGIS", "CDR-H2": "VIYSDGRRTFYADSVK", "CDR-H3": "GKAAGTFDS", "group": "GP_Gen", "log10 Kd (nM), mean": "1.31", "seen in": "5 of 6"}
{"CDR-H1": "GQSLDDYGIS", "CDR-H2": "VIYADGQRKAYVDEVK", "CDR-H3": "GEVAGTFDI", "group": "En_Gibbs", "log10 Kd (nM), mean": "-0.19", "seen in": "6 of 6"}
{"CDR-H1": "GEDLSEYGIS", "CDR-H2": "VIYADGERRSYANSVK", "CDR-H3": "GGVSGNFSS", "group": "En_Gibbs", "log10 Kd (nM), mean": "no signal", "seen in": "0 of 6"}
{"CDR-H1": "GFDLNEYGIS", "CDR-H2": "VIYADGMRTQYADSVK", "CDR-H3": "GNAAGTFDS", "group": "En_HC", "log10 Kd (nM), mean": "0.01", "seen in": "5 of 6"}
{"CDR-H1": "GKDLEEYGIS", "CDR-H2": "VIYADGVRAAYADSVK", "CDR-H3": "GINMDIMTV", "group": "En_Gibbs", "log10 Kd (nM), mean": "no signal", "seen in": "0 of 6"}
{"CDR-H1": "GMSLGEYGIS", "CDR-H2": "VIYADGERAAYTNNFK", "CDR-H3": "GVMAGTGDV", "group": "En_Gibbs", "log10 Kd (nM), mean": "no signal", "seen in": "0 of 6"}
{"CDR-H1": "GFTLNSYGIS", "CDR-H2": "VIYADGRRTFYGDSVK", "CDR-H3": "GEDAGTFDS", "group": "Ctrl", "log10 Kd (nM), mean": "0.19", "seen in": "6 of 6"}

Repeated from above, the 2 best binders with a signal in all replicates:

CDR-H1	CDR-H2	CDR-H3	group	log10 Kd (nM), mean	seen in
GFDLNEYGIS	VIYADGVRTAYADDVK	GQVAGTFDV	En_Gen	-0.58	6 of 6
GFDLDEYGIS	VIYADGQRTAYADSVK	GETAGTFDQ	En_Gen	-0.28	6 of 6